## Curated experimental data: properties

Melting points are in °C. Boiling points are in °C, nominally at 760 mmHg. logP is the log10 of the octanol-water partition coefficient; higher is more lipophilic. Solubility in water is on a log10 molar scale (set defined at 25 °C). Vapor pressure is log10 of mmHg; the set covers 15 to 30 °C, mostly 20 to 25 °C. The Henry's law constant is on a log10 scale in atm·m3/mol (set defined at 25 °C); higher favours air over water. The unbound fraction in human plasma runs from 0 (all bound) to 1 (all free). Intrinsic clearance (human, µL/min per 10^6 hepatocytes): higher is faster turnover, and 0 stands for none detected.

The entry for CC(=O)[C@H](O)c1ccccc1 [(R)-Phenylacetylcarbinol] lists log Kow 0.852 and log vapor pressure -2.929 (log10 mmHg). COCc1cnc(C2=NC(C)(C(C)C)C(=O)N2)c(C(=O)O)c1 (configuration not stated) [Imazamox] is reported with log vapor pressure -7.001 (log10 mmHg) and fu 0.4541 and intrinsic clearance 0 µL/min/10^6 cells. The entry for COCCOC(=O)C(C#N)(C(=O)c1ccccc1C(F)(F)F)c1ccc(C(C)(C)C)cc1 (configuration not stated) [Cyflumetofen] lists water solubility -7.2 (log10 mol/L) and log vapor pressure -7.354 (log10 mmHg) and Henry's law constant -6.033 (log10 atm·m3/mol). CC(Oc1cccc(Cl)c1)C(=O)O (configuration not stated) [Cloprop] is reported with fu 0.02173 and intrinsic clearance 0 µL/min/10^6 cells. The entry for CC(C)C1CCC(Cc2ccc(Cl)cc2)C1(O)Cn1cncn1 (configuration not stated) [Ipconazole] lists fu 0.0132 and intrinsic clearance 101 µL/min/10^6 cells. CCOc1ccc(C(C)(C)COCc2cccc(Oc3ccccc3)c2)cc1 [Etofenprox] is reported with log vapor pressure -8.215 (log10 mmHg) and Henry's law constant -6.872 (log10 atm·m3/mol).

For COC(=O)Cc1ccccc1 [Methyl phenylacetate] the data give mp -14.54 °C and water solubility -2.166 (log10 mol/L) and log vapor pressure -0.896 (log10 mmHg). CN[C@@H](C)Cc1ccccc1 [Methamphetamine] has bp 212 °C and water solubility -2.206 (log10 mol/L) and fu 0.85. COC12C[C@@H](CO)CN(C)[C@@H]1Cc1cn(C)c3cccc2c13 (some centres not stated) [(10-Methoxy-1,6-dimethylergolin-8-yl)methanol] is reported with mp 214 °C and log Kow 2.5 and water solubility -2.828 (log10 mol/L) and log vapor pressure -9.639 (log10 mmHg). CCC1(c2ccccc2)C(=O)NC(=O)N(C)C1=O (configuration not stated) [Mephobarbital] has water solubility -2.54 (log10 mol/L) and fu 0.5. CC[C@]12CC[C@H]3[C@@H](CCC4=CC(=O)CC[C@@H]43)[C@@H]1CCC2=O [(+)-13-Ethylgon-4-ene-3,17-dione] has mp 176 °C and log Kow 3.3 and water solubility -3.833 (log10 mol/L). CCCCCCCCCCCOC(=O)c1ccccc1C(=O)OCCCCCCCCCCC [Diundecyl phthalate] is reported with mp -9 °C and water solubility -5.631 (log10 mol/L) and log vapor pressure -8.001 (log10 mmHg).

For CNc1cnn(-c2cccc(C(F)(F)F)c2)c(=O)c1Cl [Norflurazon] the data give fu 0.1833 and intrinsic clearance 11.09 µL/min/10^6 cells. The entry for CCOP(=S)(OCC)OC(Cl)C(Cl)(Cl)Cl (configuration not stated) [Chlorethoxyfos] lists fu 0.00322 and intrinsic clearance 617 µL/min/10^6 cells. c1cc(N(CC2CO2)CC2CO2)ccc1Cc1ccc(N(CC2CO2)CC2CO2)cc1 (configuration not stated) [4,4'-Methylenebis(N,N-diglycidylaniline)] has mp -13.2 °C and log Kow 2.12 and water solubility -4.662 (log10 mol/L). The entry for CC(=O)c1cc2c(cc1C)C(C)(C)C(C)C2(C)C (configuration not stated) [Phantolide] lists mp 58.1 °C and log Kow 5.59 and water solubility -4.703 (log10 mol/L) and log vapor pressure -5.06 (log10 mmHg). CCCCOC(=O)CC(SP(=S)(OCC(CC)CCCC)OCC(CC)CCCC)C(=O)OCCCC (configuration not stated) is reported with water solubility -8.686 (log10 mol/L) and log vapor pressure -3.723 (log10 mmHg). The entry for ClC(Cl)=Nc1ccccc1 [Phenylcarbylamine chloride] lists mp 19.5 °C and bp 210 °C.

CCOc1cc(C(C)(C)C)ccc1C1COC(c2c(F)cccc2F)=N1 (configuration not stated) [Etoxazole] has log Kow 5.59 and intrinsic clearance 18.48 µL/min/10^6 cells. CN(C)Cc1nnc2n1-c1ccc(Cl)cc1C(c1ccccc1)=NC2 [Adinazolam] has log Kow 4.4 and water solubility -3.719 (log10 mol/L). The entry for CCOC(=O)N(C)C(=O)CSP(=S)(OCC)OCC [Mecarbam] lists mp 17 °C and Henry's law constant -9.046 (log10 atm·m3/mol). Cc1[nH]c(=O)n(C(C)(C)C)c(=O)c1Cl [Terbacil] has Henry's law constant -9.892 (log10 atm·m3/mol) and intrinsic clearance 2.27 µL/min/10^6 cells. CC(C)=CC1C(C(=O)OCc2cccc(Oc3ccccc3)c2)C1(C)C (configuration not stated) [Phenothrin] has bp 290 °C and Henry's law constant -5.176 (log10 atm·m3/mol). Listed for CC(C)C(C)(N)C#N (configuration not stated) [2-Amino-2,3-dimethylbutanenitrile]: mp -11 °C and log vapor pressure -0.237 (log10 mmHg).

CC(C)(C)C(O)/C(=Cc1ccc(Cl)cc1Cl)/[n]1c[n]c[n]1 (stereo partly drawn) is reported with fu 0.01924 and intrinsic clearance 2.59 µL/min/10^6 cells. Cc1cc(C)c(C2=C(OC(=O)CC(C)(C)C)C3(CCCC3)OC2=O)c(C)c1 [Spiromesifen] is reported with log Kow 7.5 and water solubility -6.45 (log10 mol/L) and Henry's law constant -6.705 (log10 atm·m3/mol). The entry for C=CCOC(=O)c1ccccc1C(=O)OCC=C [Diallyl phthalate] lists log vapor pressure -3.797 (log10 mmHg) and intrinsic clearance 8.216 µL/min/10^6 cells. The entry for COc1ccc([N+](=O)[O-])cc1[O-].[Na+] [Sodium 2-methoxy-5-nitrophenolate] lists water solubility -2.02 (log10 mol/L) and log vapor pressure -7.001 (log10 mmHg). The entry for Clc1cccc(-c2cc(Cl)ccc2Cl)c1 [PCB 026] lists mp 40 °C and log vapor pressure -3.575 (log10 mmHg). COc1ccc2c3c1O[C@H]1[C@@H](O)C=C[C@H]4[C@@H](C2)N(C)CC[C@@]341 [Codeine] is reported with fu 0.945 and intrinsic clearance 24.53 µL/min/10^6 cells.

The entry for O=C(O)C(F)(F)C(F)(F)C(F)(F)C(F)(F)C(F)(F)C(F)(F)C(F)(F)C(F)(F)F [Perfluorononanoic acid] lists water solubility -2.553 (log10 mol/L) and intrinsic clearance 0 µL/min/10^6 cells. C[C@]12CCC(=O)C[C@@H]1CC[C@@H]1[C@@H]2CC[C@]2(C)C(=O)CC[C@@H]12 [Dihydroandrostendione] has mp 142 °C and water solubility -3.76 (log10 mol/L). The entry for CCC(C)(C#N)N=NC(C)(C#N)CC (configuration not stated) [2,2'-Azobis(2-methylbutanenitrile)] lists log Kow 2.07 and log vapor pressure -2.711 (log10 mmHg). For ClC1=C(Cl)C(Cl)(C2(Cl)C(Cl)=C(Cl)C(Cl)=C2Cl)C(Cl)=C1Cl [Dienochlor] the data give log Kow 3.23 and Henry's law constant -3.165 (log10 atm·m3/mol).

Extract of 4 entries:

Listed for CC(=O)[C@H](O)c1ccccc1 [(R)-Phenylacetylcarbinol]: log Kow 0.852 and log vapor pressure -2.929 (log10 mmHg).
Listed for CCOC(=O)N(C)C(=O)CSP(=S)(OCC)OCC [Mecarbam]: mp 17 °C and Henry's law constant -9.046 (log10 atm·m3/mol).
Listed for CC(=O)c1cc2c(cc1C)C(C)(C)C(C)C2(C)C (configuration not stated) [Phantolide]: mp 58.1 °C and log Kow 5.59 and water solubility -4.703 (log10 mol/L) and log vapor pressure -5.06 (log10 mmHg).
Listed for CC(C)(C)C(O)/C(=Cc1ccc(Cl)cc1Cl)/[n]1c[n]c[n]1 (stereo partly drawn): fu 0.01924 and intrinsic clearance 2.59 µL/min/10^6 cells.

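OPERA's authors assembled the values from existing databases and did not measure them anew. A listed value is a point estimate from one report or more. Conditions of the individual experiments are not part of the data. The measured form (salt, isomer or mixture) is not always the one drawn. Some upstream entries may be estimates or bounds without being marked so.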

Values as listed in the OPERA 2.9 repository of K. Mansouri.